Earlier results as cited in patent US10421768B2, “Method of biotransformation of benzopyrone compounds into the corresponding phosphate-conjugated derivatives” (National Taiwan University, priority 2016, dated 2019).

Details: derivatives reported in several studies; cited from earlier work

## daidzein-7-O-triglucoside
  water solubility relative to aglyconic form of isoflavones: higher water solubility
